Source: ChEMBL document CHEMBL1128411, “Conformationally defined 6-s-trans-retinoic acid analogs. 2. Selective agonists for nuclear receptor binding and transcriptional activity” (J Med Chem, 1995)

Sequences of proteins named here, by UniProt entry; tags and fusion partners are left off.
UniProt P62965, whole entry: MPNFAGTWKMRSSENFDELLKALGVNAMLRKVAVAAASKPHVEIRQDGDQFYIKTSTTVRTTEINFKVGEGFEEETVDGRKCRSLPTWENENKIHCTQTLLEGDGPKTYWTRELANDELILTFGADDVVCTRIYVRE

Molecular target: Cellular retinoic acid-binding protein 1 (Mus musculus, UniProt P62965)
Assay: Binding affinity for mouse Cytoplasmic retinoic acid binding protein type 1
Procedure, shortened: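 Equilibrium fluorometric titration at 25 °C of recombinant E. coli-expressed apo-proteins (mCRABP-I, mCRABP-II, or hRXRα DEF ligand-binding domain). Ligands came from ethanol stocks, with concentrations set by UV/vis in hexane. Tryptophan fluorescence quenching was read and corrected for inner filter effects. A survey was run at 10^-6 M protein to check stoichiometry.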

Kd: > 200 nM
SMILES: CC1=C(/C=C/C(C)=C/C=C/C(C)=C\C(=O)O)C(C)(C)CCC1 [ISOTRETINOIN]
